Laboratory results published in US5643954A, “Method of preventing and alleviating stress in a healthy mammal in need thereof” (priority 1993, dated 1997).

Key:
animal's internal organs = details: about 200 mg/kg intragastric over 60 days
rats = details: intragastric introduction
mice = details: intragastric introduction
overall safety = details: in vivo

Substance: aminoacetic acid [claimed preparation]
- morphological and pathological changes of internal organs (animal's internal organs): did not discover morphological and pathological changes
- LD50 (rats): over 3000 mg/kg of animal weight
- LD50 (mice): over 3000 mg/kg of animal weight
- safety (overall safety): absolutely safe, exhibits mild action and has no contraindications
